From patent US20230265167A1, “COMPOSITIONS HAVING NEUROREGENERATIVE APPLICATIONS” (GRIFOLS WORLDWIDE OPERATIONS LIMITED, priority 2020, published 2023) come the findings set out here.

The experiment concerns SH-SY5Y cells. Description: Neurite outgrowth (differentiation) in SH-SY5Y cells, Tubulin Tracker imaging. The conditions noted are these: proteins at 0.2 mg/mL. It is filed as cell-based, human. The protocol: Transferrin is utilized in cell culture and in-vivo to deliver iron as a nutrient to cells. This is typically accomplished through the actions of holo-transferrin (HoloTf) binding to, and endocytosis by, its cognate receptor CD71, the transferrin receptor 1 (TfR1). Transferrin is typically believed to provide cells with iron as a means to promote and sustain metabolic activity. […] Induction of neuronal differentiation was assessed by morphological parameters of neurite formation (a key element typically used as a marker of neuronal differentiation, neuronal health, and function) according to the procedures of Agholme, 2010. J. of Alzheimer's Disease. Vol. 20:1p 069-108; and Dyberg et al., 2017. PNAS Vol 114 (32), E6603-E6612.
Undifferentiated SH-SY5Y cells were seeded into 96 well clear bottom plates in media containing 0.1% FBS. […]
Cells were allowed to differentiate for 6 days. Neurite growth was assessed by imaging and image analysis. […]
After obtaining images, the MetaExpress Neurite Outgrowth analysis module (Molecular Devices) was used to identify cells, cell bodies, and quantify neurites. […] The Outgrowth Fold Change was determined by setting the untreated control cells to a value of 1 with all other treatments shown relative to untreated control.
Undifferentiated SH-SY5Y cells were seeded and treated as described in Example 1. Neurite growth was assessed by imaging and image analysis. […]

In the case of “pdHSA: Plasma-derived human serum albumin purified from pooled human plasma [reference compound]”, the “neurogenesis (neurite outgrowth) of SH-SY5Y” value (FIG. 3B) is listed as “did not affect neurogenesis”.

In the case of “rHSA: low-affinity iron binding form of human serum albumin, obtained from Albumedix [reference compound]”, the “neurogenesis / differentiation of SH-SY5Y” value (FIG. 4) is listed as “neither bovine serum albumin (BSA) nor a low-affinity iron binding form of human serum albumin affected neurogenesis”.
